# The entries are a selection whose mix differs from that of the whole data set. Activity calls are given as the source filed them.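 The calls were made as follows: active = mean normalized replicate activity at least 40 and at least half of replicates scoring 40 or more; inconclusive = only one of the two criteria met; inactive = mean below 40 and under half of replicates reaching 40.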
# Amino acid sequences for entries named in this document (tags omitted).
# UniProt Q92698, whole entry: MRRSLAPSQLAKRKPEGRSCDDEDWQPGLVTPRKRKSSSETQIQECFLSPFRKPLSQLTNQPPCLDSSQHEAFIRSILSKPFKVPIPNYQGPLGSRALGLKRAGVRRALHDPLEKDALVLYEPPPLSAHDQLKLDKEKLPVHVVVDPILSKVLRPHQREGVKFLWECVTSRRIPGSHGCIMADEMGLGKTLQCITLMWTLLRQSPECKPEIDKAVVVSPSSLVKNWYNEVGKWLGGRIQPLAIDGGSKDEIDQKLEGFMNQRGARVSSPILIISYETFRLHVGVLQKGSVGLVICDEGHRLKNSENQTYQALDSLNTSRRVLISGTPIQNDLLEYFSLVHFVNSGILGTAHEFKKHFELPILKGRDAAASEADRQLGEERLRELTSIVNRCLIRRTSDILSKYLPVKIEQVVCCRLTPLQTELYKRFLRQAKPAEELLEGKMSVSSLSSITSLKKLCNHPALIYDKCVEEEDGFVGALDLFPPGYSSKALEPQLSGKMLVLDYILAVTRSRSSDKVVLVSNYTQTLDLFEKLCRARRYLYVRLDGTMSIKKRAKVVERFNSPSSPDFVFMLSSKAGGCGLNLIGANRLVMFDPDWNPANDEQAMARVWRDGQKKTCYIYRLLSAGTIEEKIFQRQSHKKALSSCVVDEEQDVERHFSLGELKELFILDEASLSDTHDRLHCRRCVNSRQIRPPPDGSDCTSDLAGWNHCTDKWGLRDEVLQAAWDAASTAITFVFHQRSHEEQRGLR
# Molecular target: DNA repair and recombination protein RAD54-like (Homo sapiens) (UniProt Q92698)
# Assay: RAD54 Holliday junction migration blockers – biochemical, fluorescence, single point, primary screen (AID 602329);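 also: 0% = median of neutral control wells and 100% = median of positive control wells; inhibitors cause a drop in the FAM fluorescence signal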
# Settings: RAD54 Holliday junction branch migration, FAM/BHQ fluorescence; at 10.4 µM; stronger effect = higher value
row,Structure (SMILES),inhibition
1,CCCOc1ccc(C(=O)NCC2(N(C)C)CCCCC2)cc1OC,inactive: -2.65%
2,Cc1ccc(C(=O)NCC2(N(C)C)CCCCC2)o1,inactive: 9.59%
3,COc1ccc(C(c2nnnn2C2CCCC2)N2CCC(n3c(=O)[nH]c4ccccc43)CC2)cc1 (centres undefined),inactive: 0.791%
4,CN1CCC(Nc2cccc(F)c2)CC1,inactive: 5.46%
5,O=C(NCC1(N2CCCCC2)CCCCC1)c1cncc(Br)c1,inactive: -2.91%
6,CCCCn1nnnc1C(c1ccnc2ccccc12)N1CCC(n2c(=O)[nH]c3ccccc32)CC1 (centres undefined),inactive: 8.04%
7,CCC(c1nnnn1C(C)(C)C)N1CCC(n2c(=O)[nH]c3ccccc32)CC1 (centres undefined),inactive: -11.9%
8,O=C(NCC1(N2CCOCC2)CCCCC1)c1cc(F)c(F)cc1Cl,inactive: 3.04%
9,COc1cc(OC)c(C(=O)NCC2(N(C)C)CCCCC2)cc1OC,inactive: 1.79%
10,CN(C)c1cccc(C(=O)NCC2(N3CCCCC3)CCCCC2)c1,inactive: -3.92%
11,CCCCn1nnnc1C(c1ccccc1OC(F)(F)F)N1CCC(n2c(=O)[nH]c3ccccc32)CC1 (centres undefined),inactive: -7.56%
12,CN1CCN(CCOC(=O)C(O)(c2ccccc2)c2ccccc2)CC1,inactive: -0.125%
13,CCCCn1nnnc1C(c1cccc2ccccc12)N1CCC(n2c(=O)[nH]c3ccccc32)CC1 (centres undefined),inactive: 3.78%
14,O=C(NCC1(N2CCOCC2)CCCCC1)c1cc(=O)[nH]c2ccccc12,inactive: -5.3%
15,COc1cc(C(=O)NCC2(N3CCCCC3)CCCCC2)ccc1OC(F)F,inactive: -0.954%
16,O=C(NCC1(N2CCCCC2)CCCCC1)c1cccc(C(F)(F)F)c1,inactive: -5.68%
17,CSc1ccc(C(=O)NCC2(N3CCOCC3)CCCCC2)cc1,inactive: 9.47%
18,O=c1[nH]c2ccccc2n1C1CCN(C(c2ccccc2OC(F)(F)F)c2nnnn2C2CCCC2)CC1 (centres undefined),inactive: -3.99%
19,N#CC1(Nc2ccccc2)CCN(CCc2ccccc2)CC1,inactive: 3.24%
20,CCN1CCC(Nc2ccc(Cl)cc2)CC1,inactive: 1.37%

row,Structure (SMILES),inhibition
1,O=C(NCC1(N2CCCCC2)CCCCC1)c1ccc(OC(F)F)cc1,inactive: -9.1%
2,CC(C)(C)n1nnnc1C(c1ccccc1OC(F)(F)F)N1CCC(n2c(=O)[nH]c3ccccc32)CC1 (centres undefined),inactive: 8.72%
3,O=c1[nH]c2ccccc2n1C1CCN(C(c2cccc3ccccc23)c2nnnn2C2CCCC2)CC1 (centres undefined),inactive: -5.35%
4,CCOC(=O)N1CCC(Nc2cccc(C)c2)CC1,inactive: -5.57%
5,COc1cc(C(=O)NCC2(N(C)C)CCCCC2)ccc1OC(F)F,inactive: 1.99%
6,O=c1[nH]c2ccccc2n1C1CCN(C(c2ccccc2)c2nnnn2C2CCCCC2)CC1 (centres undefined),inactive: -4.31%
7,CCOC(=O)N1CCC(Nc2ccc(F)cc2)CC1,inactive: 2.86%
8,COc1ccc(NC2CCN(CCc3ccccc3)CC2)c(OC)c1,inactive: -2.78%
9,CCCCOc1ccc(C(=O)NCC2(N3CCOCC3)CCCCC2)cc1,inactive: -8.92%
10,CCCCn1nnnc1C(c1cc2ccccc2o1)N1CCC(n2c(=O)[nH]c3ccccc32)CC1 (centres undefined),inactive: 4.45%
11,O=P1(N(CCCl)CCCl)SCCCS1,inactive: 5.52%
12,O=C(NCC1(N2CCCCC2)CCCCC1)c1ccc(F)cc1,inactive: 5.6%
13,O=C1CCN(Cc2ccccc2)CC1,inactive: -6.56%
14,CC(C)(C)n1nnnc1C(c1ccccc1)N1CCC(n2c(=O)[nH]c3ccccc32)CC1 (centres undefined),inactive: -2.45%
15,CCCCn1nnnc1C(c1ccc(OC)cc1)N1CCC(n2c(=O)[nH]c3ccccc32)CC1 (centres undefined),inactive: 1.43%
16,CCOC(=O)N1CCC(Nc2ccc(OC)cc2)CC1,inactive: -2.31%
17,O=C(NCC1(N2CCCCC2)CCCCC1)c1ccc(Cl)s1,inactive: 0.212%
18,O=c1[nH]c2ccccc2n1C1CCN(C(c2cc3ccccc3o2)c2nnnn2C2CCCCC2)CC1 (centres undefined),inactive: -10.4%
19,O=C(OC1CN2CCC1CC2)C1c2ccccc2Oc2ccccc21 (centres undefined),inactive: -11.9%
20,Cc1cc(C)cc(N(C(=O)c2ccccc2)C2CCN(C(=O)OC(C)(C)C)CC2)c1,inactive: -5.06%

row,Structure (SMILES),inhibition
1,O=C(NCC1(N2CCCCC2)CCCCC1)c1ccc(Cl)nc1,inactive: -5.54%
2,O=c1[nH]c2ccccc2n1C1CCN(C(c2ccccc2OC(F)(F)F)c2nnnn2C2CCCCC2)CC1 (centres undefined),inactive: -0.723%
3,Cc1cccc(NC2(C#N)CCN(Cc3ccccc3)CC2)c1,inactive: -5.99%
4,CSc1ccccc1C(=O)NCC1(N2CCCCC2)CCCCC1,inactive: -0.558%
5,CCCCn1nnnc1C(CC)N1CCC(n2c(=O)[nH]c3ccccc32)CC1 (centres undefined),inactive: -15%
6,O=C(NCC1(N2CCCCC2)CCCCC1)c1cccs1,inactive: -3.12%
7,CCCCn1nnnc1C(c1cccs1)N1CCC(n2c(=O)[nH]c3ccccc32)CC1 (centres undefined),inactive: 5.97%
8,O=C(NCC1(N2CCCCC2)CCCCC1)c1ccc(=O)[nH]c1,inactive: -4.35%
9,CC(C)(C)OC(=O)N1CCC(N(C(=O)c2ccccc2)c2ccc(F)cc2)CC1,inactive: -8.11%
10,CCC(c1nnnn1C1CCCC1)N1CCC(n2c(=O)[nH]c3ccccc32)CC1 (centres undefined),inactive: -4.43%
11,COc1ccc(C(=O)NCC2(N3CCCCC3)CCCCC2)cc1,inactive: -12.7%
12,CN1CCC(Nc2ccc(Cl)cc2)CC1,inactive: -11.9%
13,CCC(CO)(C(=O)OC1CN2CCC1CC2)c1ccccc1 (centres undefined),inactive: -6.93%
14,COc1cccc(C(=O)N(c2cc(C)cc(C)c2)C2CCN(C(=O)OC(C)(C)C)CC2)c1,inactive: -10.8%
15,COc1cc(OC)cc(C(=O)NCC2(N3CCOCC3)CCCCC2)c1,inactive: 2.99%
16,COc1cccc(C(c2nnnn2C2CCCC2)N2CCC(n3c(=O)[nH]c4ccccc43)CC2)c1OC (centres undefined),inactive: 2.89%
17,O=c1[nH]c2ccccc2n1C1CCN(C(c2cc3ccccc3o2)c2nnnn2C2CCCC2)CC1 (centres undefined),inactive: -3.09%
18,CCCOc1ccc(C(=O)NCC2(N(C)C)CCCCC2)cc1,inactive: -1.78%
19,O=C(O)C1(Nc2ccccc2)CCN(Cc2ccccc2)CC1,inactive: 6.13%

# — PubChem BioAssay AID602329 (Broad Institute, 2012)
